For experiment [1], the target named is T1, Cannabinoid receptor 1 (Homo sapiens, UniProt P21554). The experiment can be described thus: Agonist activity at human CB1 receptor expressed in HEK293 EBNA cells by [35S]GTPgamma binding assay. The class given is functional, cell-based.
Experiment [2] deals with T1, Cannabinoid receptor 1. As to the kind of experiment: Displacement of [3H]-CP55,940 from human CB1 receptor expressed in HEK293 cells. The experiment is classed as cell-based.

Sequences of proteins named here, by UniProt entry; tags and fusion partners are left off.
UniProt P21554, whole entry: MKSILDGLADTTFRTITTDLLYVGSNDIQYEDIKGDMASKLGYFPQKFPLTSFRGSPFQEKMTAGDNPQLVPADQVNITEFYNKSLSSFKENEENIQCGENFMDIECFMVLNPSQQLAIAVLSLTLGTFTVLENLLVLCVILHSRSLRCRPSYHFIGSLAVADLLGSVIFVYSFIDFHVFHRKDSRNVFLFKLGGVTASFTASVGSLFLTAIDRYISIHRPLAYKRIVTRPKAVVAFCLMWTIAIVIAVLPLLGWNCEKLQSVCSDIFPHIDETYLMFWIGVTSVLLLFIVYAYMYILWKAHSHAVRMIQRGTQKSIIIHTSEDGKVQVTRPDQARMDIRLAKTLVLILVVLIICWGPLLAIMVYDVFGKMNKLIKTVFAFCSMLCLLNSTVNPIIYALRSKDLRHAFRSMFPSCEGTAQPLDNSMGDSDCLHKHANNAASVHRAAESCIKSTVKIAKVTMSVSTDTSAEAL

Each structure is given as a SMILES string.

Compound `CCCCCOc1ccc(C(=O)c2cccc3ccccc23)c2ccccc12` displayed an EC50 at Cannabinoid receptor 1 [1] of 72 nM. Further, affinity at Cannabinoid receptor 1 [2] was put at a Ki of 35 nM.

Values taken from ChEMBL document CHEMBL1949601, “γ-Carbolines: a novel class of cannabinoid agonists with high aqueous solubility and restricted CNS penetration” (Bioorg Med Chem Lett, 2012).
